Experiments:
[1] = biological target: Phosphatidylinositol 4,5-bisphosphate 3-kinase catalytic subunit alpha isoform (Homo sapiens, UniProt P42336); experiment: Inhibition of PI3K-p110alpha (unknown origin) extracted from baculovirus-infected Sf9 cells incubated for 1 hr by microbeta counter analysis
[2] = biological target: T1, Phosphatidylinositol 4,5-bisphosphate 3-kinase catalytic subunit delta isoform (Homo sapiens, UniProt O00329); experiment: Inhibition of PI3Kdelta (unknown origin)
T1 sequence (O00329 whole entry): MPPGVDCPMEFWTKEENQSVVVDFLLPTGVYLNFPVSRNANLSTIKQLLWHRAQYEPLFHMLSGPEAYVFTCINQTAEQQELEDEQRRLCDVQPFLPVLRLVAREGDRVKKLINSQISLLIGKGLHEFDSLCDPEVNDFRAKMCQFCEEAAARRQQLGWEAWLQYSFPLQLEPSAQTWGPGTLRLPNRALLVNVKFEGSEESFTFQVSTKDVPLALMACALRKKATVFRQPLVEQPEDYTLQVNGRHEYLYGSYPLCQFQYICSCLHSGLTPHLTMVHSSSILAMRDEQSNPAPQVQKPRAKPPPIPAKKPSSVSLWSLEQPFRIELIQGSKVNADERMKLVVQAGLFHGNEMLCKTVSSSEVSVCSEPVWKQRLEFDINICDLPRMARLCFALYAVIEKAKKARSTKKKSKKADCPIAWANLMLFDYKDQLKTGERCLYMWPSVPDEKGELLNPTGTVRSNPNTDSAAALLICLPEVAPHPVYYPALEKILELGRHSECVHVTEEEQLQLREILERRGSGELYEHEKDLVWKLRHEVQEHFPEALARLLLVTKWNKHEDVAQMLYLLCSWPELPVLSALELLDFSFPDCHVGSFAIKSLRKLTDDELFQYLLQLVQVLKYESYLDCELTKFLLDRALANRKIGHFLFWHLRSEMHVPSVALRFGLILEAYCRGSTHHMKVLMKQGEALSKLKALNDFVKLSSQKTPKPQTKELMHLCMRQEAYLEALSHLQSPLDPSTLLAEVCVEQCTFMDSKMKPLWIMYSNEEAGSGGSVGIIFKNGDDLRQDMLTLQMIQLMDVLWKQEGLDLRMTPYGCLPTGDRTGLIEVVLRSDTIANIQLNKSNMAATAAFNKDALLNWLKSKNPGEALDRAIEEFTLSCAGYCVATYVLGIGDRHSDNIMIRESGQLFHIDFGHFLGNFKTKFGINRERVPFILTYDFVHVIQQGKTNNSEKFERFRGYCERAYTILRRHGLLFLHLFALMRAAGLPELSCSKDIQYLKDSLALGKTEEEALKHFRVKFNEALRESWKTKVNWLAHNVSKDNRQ

Protein sequences, listed by entry. Tags and fused reporters are not part of them.
UniProt P42336, whole entry: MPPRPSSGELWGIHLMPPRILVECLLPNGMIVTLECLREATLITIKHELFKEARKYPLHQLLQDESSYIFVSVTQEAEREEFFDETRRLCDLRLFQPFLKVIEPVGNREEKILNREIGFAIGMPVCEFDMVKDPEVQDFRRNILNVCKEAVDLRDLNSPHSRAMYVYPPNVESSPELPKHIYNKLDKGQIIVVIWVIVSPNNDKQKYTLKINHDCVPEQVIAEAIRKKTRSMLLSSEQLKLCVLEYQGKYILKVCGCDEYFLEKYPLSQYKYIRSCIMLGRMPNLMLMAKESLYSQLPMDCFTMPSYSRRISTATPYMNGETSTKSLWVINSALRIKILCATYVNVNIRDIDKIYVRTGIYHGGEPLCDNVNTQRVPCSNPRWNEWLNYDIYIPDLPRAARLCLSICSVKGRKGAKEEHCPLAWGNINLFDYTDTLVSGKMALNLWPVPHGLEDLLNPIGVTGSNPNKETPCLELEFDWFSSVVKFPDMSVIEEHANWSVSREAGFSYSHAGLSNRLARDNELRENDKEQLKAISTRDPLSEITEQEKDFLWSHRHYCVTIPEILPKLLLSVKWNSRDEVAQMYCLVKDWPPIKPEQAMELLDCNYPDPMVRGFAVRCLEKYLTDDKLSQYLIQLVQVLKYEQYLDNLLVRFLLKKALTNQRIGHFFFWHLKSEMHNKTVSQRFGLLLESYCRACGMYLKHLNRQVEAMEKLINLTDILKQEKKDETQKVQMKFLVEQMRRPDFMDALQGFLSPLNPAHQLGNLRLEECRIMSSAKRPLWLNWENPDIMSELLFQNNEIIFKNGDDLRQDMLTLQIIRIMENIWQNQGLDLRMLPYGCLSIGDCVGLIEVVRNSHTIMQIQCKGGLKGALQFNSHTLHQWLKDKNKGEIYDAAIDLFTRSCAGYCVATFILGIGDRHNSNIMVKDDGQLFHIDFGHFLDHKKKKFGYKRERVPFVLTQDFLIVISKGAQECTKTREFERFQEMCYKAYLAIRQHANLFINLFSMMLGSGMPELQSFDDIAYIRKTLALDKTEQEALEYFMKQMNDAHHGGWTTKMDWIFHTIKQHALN

Compound Cc1nc(-c2cn3c(n2)-c2ccc(-c4cnn(C(C)(C)C(N)=O)c4)cc2OCC3)n(C(C)C)n1 [TASELISIB] has an IC50 [1] of 0.29 nM and an IC50 [2] of 0.97 nM.

Source: ChEMBL document CHEMBL6120936, “Autophagy modulation in cancer therapy: Challenges coexist with opportunities” (Eur J Med Chem, 2024)
